These results are taken from patent US20130150363A1, “Method of Treating Cancer Using a cMET and AXL Inhibitor and an ErbB Inhibitor” (GlaxoSmithKline, priority 2008, published 2013).

Broadly, the IC50 is the midpoint of a concentration-inhibition curve.

Read-outs that look alike come from different tables or passages of the source.

Common to all, as to assay type: cell-based, human
The subject of assay [1] is N87 gastric carcinoma cells. The assay is described as follows: Cell growth inhibition (CellTiter-Glo), N87. The settings on record: for IC50: 5 day treatment, read-out: IC50 cell growth inhibition, single agent. The text has this:
(§1) Esophageal carcinoma cell line OE33 was purchased from ECACC European Collection of Cell Cultures (UK). Breast cancer cell line JIMT-1 and gastric carcinoma cell line MKN-45 were purchased from Deutsche Sammlung von Mikroorganismen and Zellkulturen GmbH (Germany); KPL-4, a human breast cancer cell line was kindly provided by Prof. J Kurebayashi (Kawasaki Medical School, Kurashiki, Japan). […] The LICR-LON-HN5 head and neck carcinoma cell line (HN5) was a gift from the Institute of Cancer Research, Surrey, U.K. HN5C12 was developed by single-cell cloning of HN5 followed by exposure to increasing concentrations of lapatinib. […] Cell growth inhibition was determined via CellTiter-Glo cell viability assays. […] BT474-J4 and HN5C12 were washed with PBS and plated in their culture media without lapatinib. […] ATP levels were determined by adding Cell Titer Glo0 (Promega), incubating for 20 minutes then the luminescent signal was read on the SpectraMax M5 plate with a 0.5 second integration time. Cell growth was calculated relative to vehicle (DMSO) treated control wells. […] y=([…]) where A is the minimum response (ymin), B is the maximum response (ymax), c is the inflection point of the curve (EC50), d is the Hill coefficient, and x is the log10 compound concentration (moles/L). CI values were calculated with the interpolated IC50 values and the mutually non-exclusive equation derived by Chou and […](a)+Db/IC50(b)+(Da×Db)/(IC50(a)×IC50(b)) where IC50(a) is the IC50 of the inhibitor A; IC50(b) is the IC50 for the inhibitor B; […] Excess Over Highest Single Agent (EOHSA) is defined as a statistically significant improvement in the combination compared to the component monotherapies. […] See Borisy et al. (2003) or Hung et al. (1993) for examples and discussion. […] EOHSA at each dose was calculated as the minimum difference in average % inhibition between the combination and each monotherapy, from the appropriate ANOVA contrast. […] The p-values for both synergy and antagonism were calculated using this adjustment.
Background: Cellular ATP, detected with luciferase, serves as a proxy for viable cell number.

Assay [2] concerns OE33 esophageal carcinoma cells. The assay is described as follows: Cell growth inhibition (CellTiter-Glo), OE33. The following applies: for IC50: 5 day treatment, read-out: IC50 cell growth inhibition, single agent.
Excerpt: as §1

Assay [3] deals with BT474 breast carcinoma cells. The assay is described as follows: Cell growth inhibition (CellTiter-Glo), BT474. The settings on record: BT474, with HGF, 5 days of treatment (FIG. 7). The text has this:
Esophageal carcinoma cell line OE33 was purchased from ECACC European Collection of Cell Cultures (UK). Breast cancer cell line JIMT-1 and gastric carcinoma cell line MKN-45 were purchased from Deutsche Sammlung von Mikroorganismen and Zellkulturen GmbH (Germany); KPL-4, a human breast cancer cell line was kindly provided by Prof. J Kurebayashi (Kawasaki Medical School, Kurashiki, Japan). […] The LICR-LON-HN5 head and neck carcinoma cell line (HN5) was a gift from the Institute of Cancer Research, Surrey, U.K. HN5C12 was developed by single-cell cloning of HN5 followed by exposure to increasing concentrations of lapatinib. […] Cell growth inhibition was determined via CellTiter-Glo cell viability assays. […] BT474-J4 and HN5C12 were washed with PBS and plated in their culture media without lapatinib. […] ATP levels were determined by adding Cell Titer Glo0 (Promega), incubating for 20 minutes then the luminescent signal was read on the SpectraMax M5 plate with a 0.5 second integration time. Cell growth was calculated relative to vehicle (DMSO) treated control wells. […] EOHSA at each dose was calculated as the minimum difference in average % inhibition between the combination and each monotherapy, from the appropriate ANOVA contrast. […] The p-values for both synergy and antagonism were calculated using this adjustment.

Assay [4] has as its system BT474-J4 lapatinib resistant breast carcinoma cells. The assay is described as follows: Cell growth inhibition (CellTiter-Glo), BT474-J4. The settings on record: BT474-J4, 5 days of treatment. The text has this:
Esophageal carcinoma cell line OE33 was purchased from ECACC European Collection of Cell Cultures (UK). Breast cancer cell line JIMT-1 and gastric carcinoma cell line MKN-45 were purchased from Deutsche Sammlung von Mikroorganismen and Zellkulturen GmbH (Germany); KPL-4, a human breast cancer cell line was kindly provided by Prof. J Kurebayashi (Kawasaki Medical School, Kurashiki, Japan). […] The LICR-LON-HN5 head and neck carcinoma cell line (HN5) was a gift from the Institute of Cancer Research, Surrey, U.K. HN5C12 was developed by single-cell cloning of HN5 followed by exposure to increasing concentrations of lapatinib. […] Cell growth inhibition was determined via CellTiter-Glo cell viability assays. […] ATP levels were determined by adding Cell Titer Glo0 (Promega), incubating for 20 minutes then the luminescent signal was read on the SpectraMax M5 plate with a 0.5 second integration time. Cell growth was calculated relative to vehicle (DMSO) treated control wells. […] CI values were calculated with the interpolated IC50 values and the mutually non-exclusive equation derived by Chou and […](a)+Db/IC50(b)+(Da×Db)/(IC50(a)×IC50(b)) where IC50(a) is the IC50 of the inhibitor A; IC50(b) is the IC50 for the inhibitor B; […] […] EOHSA at each dose was calculated as the minimum difference in average % inhibition between the combination and each monotherapy, from the appropriate ANOVA contrast. […]

For the substance “Trastuzumab: humanized monoclonal antibody which binds to the extracellular segment of the HER2 receptor and inhibits HER2 signaling”, the “cell growth inhibition” value was “no significant inhibition” in assay [1] (N87, 5 days of treatment); “no significant inhibition” in assay [2] (OE-33, 5 days of treatment); 35% in assay [3]; “no significant inhibition” in assay [4]. In addition, the IC50 in assay [1] (gastric_N87, +HGF) was more than 687 nM; in assay [1] (gastric_N87, −HGF) it was more than 687 nM; in assay [2] (eso_OE33, +HGF), more than 687 nM; in assay [2] (eso_OE33, −HGF), more than 687 nM.
